Experimental findings from US10512632B2, “1 H-pyrazolo[4,3-B]pyridines as PDE1 inhibitors” (priority 2016, dated 2019) are described below.

By UniProt entry, the sequences of proteins in these tests, tags left out. Where a name states a change or a piece, a line headed by the entry shows the natural chain unless it says otherwise.
UniProt Q14123, whole entry: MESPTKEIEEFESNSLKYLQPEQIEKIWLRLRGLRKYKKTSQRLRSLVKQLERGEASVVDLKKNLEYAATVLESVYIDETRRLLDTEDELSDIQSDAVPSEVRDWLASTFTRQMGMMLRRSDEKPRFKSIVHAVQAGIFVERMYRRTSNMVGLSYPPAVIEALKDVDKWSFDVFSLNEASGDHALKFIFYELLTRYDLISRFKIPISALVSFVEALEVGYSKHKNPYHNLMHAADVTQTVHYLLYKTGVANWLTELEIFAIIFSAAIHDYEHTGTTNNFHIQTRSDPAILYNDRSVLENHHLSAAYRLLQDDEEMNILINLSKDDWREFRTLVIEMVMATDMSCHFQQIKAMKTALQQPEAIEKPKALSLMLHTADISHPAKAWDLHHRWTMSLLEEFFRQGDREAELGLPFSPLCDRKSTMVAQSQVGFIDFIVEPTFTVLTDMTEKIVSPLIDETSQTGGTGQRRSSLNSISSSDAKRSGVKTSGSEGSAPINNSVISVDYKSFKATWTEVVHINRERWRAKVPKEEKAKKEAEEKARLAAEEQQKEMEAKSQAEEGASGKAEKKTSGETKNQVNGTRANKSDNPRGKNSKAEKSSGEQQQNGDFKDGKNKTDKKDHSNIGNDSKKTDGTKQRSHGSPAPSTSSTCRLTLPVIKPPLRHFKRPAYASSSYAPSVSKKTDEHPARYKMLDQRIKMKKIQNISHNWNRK
UniProt Q01064: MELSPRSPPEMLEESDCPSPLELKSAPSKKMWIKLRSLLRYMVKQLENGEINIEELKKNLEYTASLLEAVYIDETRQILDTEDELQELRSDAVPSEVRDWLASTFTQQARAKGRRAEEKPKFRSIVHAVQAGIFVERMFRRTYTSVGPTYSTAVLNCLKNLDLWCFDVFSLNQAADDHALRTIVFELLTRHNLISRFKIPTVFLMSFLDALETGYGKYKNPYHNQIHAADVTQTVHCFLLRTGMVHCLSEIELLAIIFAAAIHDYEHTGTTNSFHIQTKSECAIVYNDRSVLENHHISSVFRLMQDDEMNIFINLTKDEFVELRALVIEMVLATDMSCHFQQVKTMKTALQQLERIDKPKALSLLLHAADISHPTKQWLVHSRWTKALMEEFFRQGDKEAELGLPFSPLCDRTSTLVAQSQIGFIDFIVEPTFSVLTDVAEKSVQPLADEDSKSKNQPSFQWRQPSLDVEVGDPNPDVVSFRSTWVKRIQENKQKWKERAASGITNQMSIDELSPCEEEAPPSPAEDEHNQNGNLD

Assay [1] concerns the target PDE1C (Homo sapiens (Human), UniProt Q14123). The assay is described as follows: PDE1 inhibition assay (PDE1C), SPA with tritium labelled cAMP. It counts as biochemical. As to conditions: 15 nM tritium labelled cAMP, 1 hr at room temperature. An excerpt:
(§1) Table 1 lists the IC50 value for inhibition of PDE1 by the compounds of the invention. […] PDE1 assays are described in the Experimental Section.

In assay [2] the target is PDE1B (Homo sapiens (Human), UniProt Q01064). Nature of the assay: PDE1 inhibition assay (PDE1B), SPA with tritium labelled cAMP. It counts as biochemical. As to conditions: 15 nM tritium labelled cAMP, 1 hr at room temperature.
Source text: as §1

Usually IC50 stands for the concentration at which inhibition is half-maximal.

Turning to `CCOc1ncccc1-c1cc(NCc2cnn(C)c2)c2c(cnn2CC)n1` [Example 26, 5-(2-ethoxy-3-pyridyl)-1-ethyl-N-[(1-methylpyrazol-4-yl)methyl]pyrazolo[4,3-b]pyridin-7-amine], the IC50 was 440 nM in assay [1] and 22 nM in assay [2]. In the case of `CCOc1ncccc1-c1cc(NCc2ccncc2OC)c2c(n1)c(C)nn2C(C)C` [Example 172, 5-(2-ethoxy-3-pyridyl)-1-isopropyl-N-[(3-methoxy-4-pyridyl)methyl]-3-methyl-pyrazolo[4,3-b]pyridin-7-amine], the IC50 in assay [1] was determined as 46 nM.
